ChEMBL document CHEMBL3745662, “Preliminary investigation of 6,7-dihydropyrazolo[1,5-a]pyrazin-4-one derivatives as a novel series of mGlu5 receptor positive allosteric modulators with efficacy in preclinical models of schizophrenia” (Bioorg Med Chem Lett, 2016)

Species on record: Homo sapiens
Experiment: Selectivity index, ratio of EC50 for antagonist activity at human mGlu3 to EC50 for positive allosteric modulation of human mGlu5

## O=C1c2cc(OCc3ccccc3)nn2CCN1c1ccc(F)cc1
  Ratio EC50: 21
